Some compounds may have been tested in ways that are not shown here.
Molecular target: Drak2 (Homo sapiens, UniProt O94768)
Experiment: Drak2 activity test, ADP-Glo kinase assay (Promega)
Format: biochemical
Conditions: read-out: IC50_Drak2, inhibition of Drak2 kinase activity, 2 h room temperature, activity range classes

Chains of the proteins cited; added tags and fusions are not shown.
UniProt O94768, whole entry: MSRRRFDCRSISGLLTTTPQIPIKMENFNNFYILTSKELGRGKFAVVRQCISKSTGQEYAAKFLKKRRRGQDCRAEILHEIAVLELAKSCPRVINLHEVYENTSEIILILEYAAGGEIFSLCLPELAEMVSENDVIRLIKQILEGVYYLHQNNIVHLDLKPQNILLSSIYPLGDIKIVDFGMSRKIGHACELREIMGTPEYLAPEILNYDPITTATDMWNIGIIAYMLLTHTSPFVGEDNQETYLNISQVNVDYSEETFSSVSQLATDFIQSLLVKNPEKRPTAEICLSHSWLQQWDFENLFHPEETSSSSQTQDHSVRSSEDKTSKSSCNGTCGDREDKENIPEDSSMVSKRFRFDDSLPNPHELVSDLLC

CCCCC(=O)Nc1csc(-c2cncc(-c3ccc(C(=O)N(c4cnn(C)c4)C4CCN(C)CC4)c(OC)c3)n2)c1
IC50: 11 to 100 nM
